# Most compounds without a hit are left out; they make up all but 2.8% or so of the library.
# esBAF inh: inhibitors of esBAF chromatin remodeling in mouse ES cells; Bmi1-luciferase knock-in reporter, 24 h; 100% = twice the neutral-well signal; reporter increase, % at 12.5 µM; 2% of 350,000 active; in the data active = activation above about 40%; inconclusive = no clear call, values can overlap the other calls;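 also: 0% = median of the plate's neutral control wells and 100% = double that signal; a rise in the Bmi1 reporter signal indicates esBAF inhibition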
# Wnt bcat act: Wnt/beta-catenin pathway activation. Wnt/beta-catenin reporter cell assay, activator, plate reader. activation, % at 9.35 µM. 1.2% of 300,000 active. AID 743398; in the data active = activation above about 30%, passing the limit was not always enough; inconclusive = no clear call, values can overlap the other calls;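 also: 0% = neutral control wells and 100% = positive control wells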
# PglD DTNB: PglD (C. jejuni) enzyme inhibition. inhibition, % at 12.5 µM. 0.098% of 360,000 active. purified PglD enzyme, DTNB colorimetric CoA detection; in the data active = inhibition above about 16%, passing the limit was not always enough; inconclusive = no clear call, values can overlap the other calls
# Yeast UUG start: alters start codon recognition fidelity in yeast | S. cerevisiae UUG-firefly luciferase reporter, luminescence/redox ratio | activity score, % at 18.7 µM | 350,000 compounds, 0.13% hits | AID 602363;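 active = replicate mean at a twofold rise or more, about +100% in these data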;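 note: firefly luciferase made from a UUG start codon reports start codon fidelity; reporter light over untreated wells divided by growth signal over untreated wells; some hits fall short of that in this replicate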
# miR-122 sensor: blocks miR-122 activity in Huh7 sensor cells | Huh7 miR-122 Renilla luciferase sensor, 48 h; neutral wells = 0, positive control = 100 | activation (reporter increase), % at 12.5 µM | 0.3% of 340,000 active;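 active = mean replicate activation score at least 90 and every replicate individually at or above 90; inconclusive = only one of the two criteria met; inactive = neither criterion met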;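 also: higher luciferase means less miR-122 activity so hits act as miR-122 inhibitors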
# MITF act: MITF TRPM1 promoter activation in melanoma cells | SK-MEL-5 TRPM1-promoter luciferase, 24 h; % of positive control, neutral wells = 0 | activation, % at 12.5 µM | 0.75% of 300,000 active;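 active = mean activation of at least 80% with every replicate also reaching 80%; inconclusive = mean reaches 80% but some replicate falls short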;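 also: 0% = neutral control wells and 100% = parthenolide positive control wells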
# Starred values were filed as active, the others as inactive; ? = inconclusive; / = not tested or not shown; [ ] = another dose, or the depositor's remark.
# Field names: A = esBAF inh; B = Wnt bcat act; C = PglD DTNB; D = Yeast UUG start; E = miR-122 sensor; F = MITF act
1. O=[N+]([O-])c1ccc(N=Nc2ncc[nH]2)cc1
  A: -50.8 | B: 53.5* | C: -2.0 | D: -6.4 | E: / | F: -13.3
2. COc1ccc(C(C)(C)C)cc1NS(=O)(=O)c1cccc2cccnc12
  A: 6.8 | B: 5.1 | C: 8.0 | D: 0.0 | E: 117.1* | F: 6.0
3. COc1ccccc1NS(=O)(=O)c1ccc2ccccc2c1
  A: 12.5 | B: 7.0 | C: -2.0 | D: -8.0 | E: 28.5 | F: -3.9
4. COc1ccc(NS(=O)(=O)c2ccc3ccccc3c2)c2ncccc12
  A: / | B: -5.0 | C: 2.4 | D: -28.0 | E: 104.3* | F: -27.6
5. O=S(=O)(Nc1ccc(Cl)cc1)c1cccc2cccnc12
  A: -4.2 | B: 0.9 | C: 5.6 | D: -2.9 | E: 98.8* | F: -5.0
6. COc1ccc(OC)c(NS(=O)(=O)c2cccc3cccnc23)c1
  A: 0.2 | B: -3.9 | C: -3.1 | D: -14.8 | E: 80.3 | F: -7.4
7. O=C(O)c1ccc(NS(=O)(=O)c2cccc3cccnc23)cc1
  A: -3.4 | B: -4.4 | C: 1.5 | D: 11.0 | E: 5.1 | F: 7.5
8. O=C(c1ccc(F)cc1)c1ccc(N2CCCCC2)cc1
  A: 35.8 | B: 39.8* | C: -1.9 | D: -3.5 | E: -1.1 | F: 103.0*
9. O=C(Nc1ccc(N2CCCCC2)cc1)c1ccc(F)cc1
  A: -1.3 | B: 8.3 | C: 0.5 | D: -9.9 | E: -0.4 | F: /
10. O=C(c1ccc(F)cc1)c1ccc(N2CCCC2)cc1
  A: 65.3* | B: 5.1 | C: / | D: / | E: 3.0 | F: 54.5

# (more compounds)
# Field names: A = esBAF inh; B = Wnt bcat act; C = PglD DTNB; D = Yeast UUG start; E = miR-122 sensor; F = MITF act
11. O=C(CCC(=O)N1CCN(c2ccc(F)cc2)CC1)N1CCN(c2ccc(F)cc2)CC1
  A: 0.0 | B: -1.7 | C: -0.6 | D: -4.4 | E: -7.8 | F: -25.4
12. O=C(C[C@H]1CC[C@@H]2[C@H](COC[C@@H](O)CN2C(=O)Nc2ccc(Cl)cc2)O1)NCCc1ccncc1
  A: 5.4 | B: / | C: 2.0 | D: / | E: 6.5[16.7 µM] | F: /
13. O=C(Nc1ccccc1)c1ccc(Br)o1
  A: 39.5 | B: 12.9 | C: -0.1 | D: -20.0 | E: / | F: 42.4
14. CCCOC(=O)c1ccc(NC(=O)c2ccc(Br)o2)cc1
  A: / | B: 6.0 | C: / | D: / | E: / | F: 47.2
15. COc1ccc(-c2ccc(NC(=O)c3ccc(Br)o3)cc2)nn1
  A: 26.7 | B: 30.9* | C: -2.9 | D: -2.1 | E: 1.6 | F: 97.6*
16. CCN(CC)c1ccc(NC(=O)c2ccc(Br)o2)cc1
  A: 43.2* | B: 69.8* | C: 4.7 | D: -23.7 | E: -1.7 | F: 96.7*
17. COC(=O)Cc1ccc(NC(=O)c2ccc(Br)o2)cc1
  A: 56.8* | B: 8.8 | C: / | D: / | E: -2.1 | F: 48.2
18. C[C@@H]1CN([C@@H](C)CO)S(=O)(=O)c2ccc(C#Cc3ccccc3F)cc2O[C@H]1CN(C)C
  A: -6.4 | B: / | C: -0.6 | D: -2.5 | E: 0.4[16.7 µM] | F: /
19. CC1(C)CC(=O)C(=Cc2cn(-c3ccccc3)nc2-c2ccc(Cl)cc2)C(=O)C1
  A: 83.4* | B: / | C: -0.1 | D: 1.7 | E: / | F: 12.6
20. CC1(C)CC(=O)C(=Cc2cn(CCC#N)nc2-c2ccc(Cl)cc2)C(=O)C1
  A: / | B: -1.9 | C: / | D: / | E: / | F: 10.7

# New compounds follow.
# Field names: A = esBAF inh; B = Wnt bcat act; C = PglD DTNB; D = Yeast UUG start; E = miR-122 sensor; F = MITF act
21. Cc1noc(N)c1C(=O)Nc1ccc(C(C)(C)C)cc1
  A: / | B: 50.5* | C: -6.3 | D: -2.1 | E: -3.0 | F: 85.7*
22. O=C(NC(=O)c1ccc(Cl)cc1)OC1CCCCC1
  A: / | B: / | C: 4.6 | D: -12.1 | E: 0.9 | F: 21.3
23. O=C(Nc1ccccc1Cl)OC1CCCCC1
  A: 56.1* | B: 4.6 | C: 1.2 | D: -21.0 | E: -5.2 | F: 71.1
24. CC(OC(=O)C1CCCCC1)C(=O)Nc1cccc(Cl)c1 (centres undefined)
  A: -7.8 | B: 0.1 | C: -3.5 | D: -3.0 | E: -3.3 | F: -6.0
25. CC(OC(=O)Nc1cccc(Cl)c1)C(=O)OC1CCCCC1 (centres undefined)
  A: 53.5* | B: 19.3 | C: -3.9 | D: -8.6 | E: / | F: 34.7
26. COc1ccc(-c2csc(-n3ncc(C(=O)O)c3C(F)(F)F)n2)cc1
  A: ? | B: 8.5 | C: -2.5 | D: -15.0 | E: -0.4 | F: 41.7
27. O=C(O)c1ccc(-c2nc(-c3ccc(Cl)cc3Cl)cs2)cc1
  A: 59.7* | B: 3.6 | C: -4.2 | D: 554.9* | E: 15.5 | F: ?
28. COc1ccc(-c2csc(-c3ccc(C(=O)O)cc3)n2)cc1
  A: / | B: -5.1 | C: / | D: / | E: / | F: 62.0
29. O=C(O)c1cnn(-c2nc(-c3ccc(Cl)cc3)cs2)c1C(F)(F)F
  A: 75.9* | B: 9.9 | C: -2.5 | D: -20.3 | E: 3.6 | F: 67.8
30. COC(=O)c1cnn(-c2nc(-c3ccccc3)cs2)c1N
  A: 64.7* | B: 12.3 | C: -4.6 | D: -7.7 | E: 0.1 | F: 65.6

# Remaining list, next part.
# Field names: A = esBAF inh; B = Wnt bcat act; C = PglD DTNB; D = Yeast UUG start; E = miR-122 sensor; F = MITF act
31. O=C(O)c1ccc(-c2nc(-c3ccc(Cl)cc3)cs2)cc1
  A: / | B: -4.2 | C: / | D: / | E: / | F: 117.9*
32. COc1ccc(S(=O)(=O)Nc2ccc3c(c2)C(=O)N([C@@H](C)CO)C[C@@H](C)[C@H](CN(C)C(=O)Nc2ccccc2)OCCCC[C@@H](C)O3)cc1
  A: -1.6 | B: / | C: 0.1 | D: 15.4 | E: 40.4[16.7 µM] | F: /
33. Cc1ccc(S(=O)(=O)N2C[C@H](O)COC[C@H]3O[C@H](CC(=O)N[C@@H]4CCN(Cc5ccccc5)C4)CC[C@@H]32)cc1
  A: 0.2 | B: / | C: 1.8 | D: -7.0 | E: 2.2[16.7 µM] | F: /
34. CN(C)S(=O)(=O)c1ccc(C(=O)NCCOc2ccc(F)cc2)cc1
  A: 60.8* | B: 20.8 | C: 8.1 | D: -19.9 | E: 1.8 | F: 64.8
35. CN(C)S(=O)(=O)c1ccc(C(=O)NCCOc2ccccc2)cc1
  A: / | B: 48.3* | C: 0.1 | D: -12.9 | E: -5.3 | F: 62.5
36. CC(C)(C)c1ccc(C(=O)NCCOc2ccccc2)cc1
  A: -43.0 | B: 3.9 | C: -0.5 | D: -35.6 | E: 6.9 | F: /
37. CN(c1ccc(C(=O)NCCSC(C)(C)C)cc1)S(=O)(=O)c1ccccc1
  A: 0.4 | B: 44.1* | C: -6.0 | D: 11.5 | E: 19.3 | F: 7.2
38. C/C=C/c1cnc2c(c1)C(=O)N([C@@H](C)CO)C[C@H](C)[C@@H](CN(C)C(=O)CCN1CCCCC1)O2
  A: -4.8 | B: / | C: / | D: / | E: 2.7[16.7 µM] | F: /
39. CN(C)CC(=O)Nc1ccc2c(c1)[C@H]1C[C@H](CC(=O)NC3CCCC3)O[C@@H](CO)[C@H]1O2
  A: 2.8 | B: / | C: 0.7 | D: -8.5 | E: -5.9[16.7 µM] | F: /
40. CCc1cc(CNC(=O)CCc2nnc(CCCc3ccccc3)o2)on1
  A: 57.1* | B: 43.5* | C: -0.5 | D: -12.8 | E: 1.6 | F: 89.2*

# Next structures follow:
# Field names: A = esBAF inh; B = Wnt bcat act; C = PglD DTNB; D = Yeast UUG start; E = miR-122 sensor; F = MITF act
41. CC(C)c1cc(CNC(=O)CCc2nnc(CCCc3ccccc3)o2)on1
  A: / | B: ? | C: / | D: / | E: / | F: 51.5
42. O=S(=O)(N[C@@H]1CCCN(Cc2ccc(OCCO)cc2)C1)c1cc(Cl)ccc1Cl
  A: / | B: / | C: 7.9 | D: -2.1 | E: / | F: /
43. C[C@@H]1CN([C@@H](C)CO)C(=O)c2cc(NC(=O)Nc3ccccc3)ccc2O[C@@H](C)CCCCO[C@H]1CN(C)S(=O)(=O)c1cn(C)cn1
  A: 1.3 | B: / | C: -0.7 | D: 6.0 | E: 7.8[16.7 µM] | F: /
44. COC(=O)[C@@H](NC(=O)NCCC1=CCCCC1)C(C)C
  A: 4.0 | B: 65.2* | C: 0.6 | D: -6.4 | E: / | F: 1.3
45. CCC(=O)Nc1ccc2c(c1)C(=O)N(C)[C@@H]1CC[C@H](CC(=O)NCc3ccccc3Cl)O[C@H]1CO2
  A: -5.3 | B: / | C: -0.2 | D: 10.3 | E: -0.7[16.7 µM] | F: /
46. Brc1ccc(-n2cnc(-c3ccccc3)c2)cc1
  A: 11.6 | B: 44.9* | C: -10.5 | D: -23.9 | E: 10.5 | F: 45.4
47. O=[N+]([O-])c1ccc(-c2cn(-c3ccc(Cl)cc3)cn2)cc1
  A: / | B: 5.0 | C: / | D: / | E: / | F: /
48. COc1ccc(Cl)cc1N(CC(=O)N1CCCC1)S(=O)(=O)c1ccc(C)cc1
  A: 1.6 | B: -2.3 | C: / | D: / | E: 140.9* | F: 4.1
49. COc1ccccc1N(CC(=O)N1CCCCC1C)S(=O)(=O)c1ccc(Cl)cc1 (centres undefined)
  A: -1.8 | B: -0.8 | C: 5.3 | D: -1.3 | E: 128.3* | F: /
50. COc1ccccc1N(CC(=O)N1CCCC1)S(=O)(=O)c1ccc(C)cc1
  A: 0.7 | B: -0.9 | C: -0.1 | D: 9.7 | E: / | F: 4.5
51. O=C(O)CCn1c(=O)sc2ccccc21
  A: -6.2 | B: -0.8 | C: -0.6 | D: -17.1 | E: -11.9 | F: /
52. Cn1c(=O)n(CCOc2ccccc2Cl)c2ccccc21
  A: 78.1* | B: 4.5 | C: 0.4 | D: 2.2 | E: -6.7 | F: 38.8

# As entered above.
# Yeast UUG start with entry 2 reads 0.0
# PglD DTNB with entry 50 reads -0.1
# PglD DTNB with entry 9 reads 0.5

# From compound 50 up to 52, copied from above:
# Field names: A = esBAF inh; B = Wnt bcat act; C = PglD DTNB; D = Yeast UUG start; E = miR-122 sensor; F = MITF act
50. COc1ccccc1N(CC(=O)N1CCCC1)S(=O)(=O)c1ccc(C)cc1
  A: 0.7 | B: -0.9 | C: -0.1 | D: 9.7 | E: / | F: 4.5
51. O=C(O)CCn1c(=O)sc2ccccc21
  A: -6.2 | B: -0.8 | C: -0.6 | D: -17.1 | E: -11.9 | F: /
52. Cn1c(=O)n(CCOc2ccccc2Cl)c2ccccc21
  A: 78.1* | B: 4.5 | C: 0.4 | D: 2.2 | E: -6.7 | F: 38.8

# Screens (PubChem)
